BindingDB's records for patent US10836758 (BRISTOL-MYERS SQUIBB COMPANY, 2020)

Protein sequences, listed by entry. Tags and fused reporters are not part of them.
UniProt Q15858, whole entry: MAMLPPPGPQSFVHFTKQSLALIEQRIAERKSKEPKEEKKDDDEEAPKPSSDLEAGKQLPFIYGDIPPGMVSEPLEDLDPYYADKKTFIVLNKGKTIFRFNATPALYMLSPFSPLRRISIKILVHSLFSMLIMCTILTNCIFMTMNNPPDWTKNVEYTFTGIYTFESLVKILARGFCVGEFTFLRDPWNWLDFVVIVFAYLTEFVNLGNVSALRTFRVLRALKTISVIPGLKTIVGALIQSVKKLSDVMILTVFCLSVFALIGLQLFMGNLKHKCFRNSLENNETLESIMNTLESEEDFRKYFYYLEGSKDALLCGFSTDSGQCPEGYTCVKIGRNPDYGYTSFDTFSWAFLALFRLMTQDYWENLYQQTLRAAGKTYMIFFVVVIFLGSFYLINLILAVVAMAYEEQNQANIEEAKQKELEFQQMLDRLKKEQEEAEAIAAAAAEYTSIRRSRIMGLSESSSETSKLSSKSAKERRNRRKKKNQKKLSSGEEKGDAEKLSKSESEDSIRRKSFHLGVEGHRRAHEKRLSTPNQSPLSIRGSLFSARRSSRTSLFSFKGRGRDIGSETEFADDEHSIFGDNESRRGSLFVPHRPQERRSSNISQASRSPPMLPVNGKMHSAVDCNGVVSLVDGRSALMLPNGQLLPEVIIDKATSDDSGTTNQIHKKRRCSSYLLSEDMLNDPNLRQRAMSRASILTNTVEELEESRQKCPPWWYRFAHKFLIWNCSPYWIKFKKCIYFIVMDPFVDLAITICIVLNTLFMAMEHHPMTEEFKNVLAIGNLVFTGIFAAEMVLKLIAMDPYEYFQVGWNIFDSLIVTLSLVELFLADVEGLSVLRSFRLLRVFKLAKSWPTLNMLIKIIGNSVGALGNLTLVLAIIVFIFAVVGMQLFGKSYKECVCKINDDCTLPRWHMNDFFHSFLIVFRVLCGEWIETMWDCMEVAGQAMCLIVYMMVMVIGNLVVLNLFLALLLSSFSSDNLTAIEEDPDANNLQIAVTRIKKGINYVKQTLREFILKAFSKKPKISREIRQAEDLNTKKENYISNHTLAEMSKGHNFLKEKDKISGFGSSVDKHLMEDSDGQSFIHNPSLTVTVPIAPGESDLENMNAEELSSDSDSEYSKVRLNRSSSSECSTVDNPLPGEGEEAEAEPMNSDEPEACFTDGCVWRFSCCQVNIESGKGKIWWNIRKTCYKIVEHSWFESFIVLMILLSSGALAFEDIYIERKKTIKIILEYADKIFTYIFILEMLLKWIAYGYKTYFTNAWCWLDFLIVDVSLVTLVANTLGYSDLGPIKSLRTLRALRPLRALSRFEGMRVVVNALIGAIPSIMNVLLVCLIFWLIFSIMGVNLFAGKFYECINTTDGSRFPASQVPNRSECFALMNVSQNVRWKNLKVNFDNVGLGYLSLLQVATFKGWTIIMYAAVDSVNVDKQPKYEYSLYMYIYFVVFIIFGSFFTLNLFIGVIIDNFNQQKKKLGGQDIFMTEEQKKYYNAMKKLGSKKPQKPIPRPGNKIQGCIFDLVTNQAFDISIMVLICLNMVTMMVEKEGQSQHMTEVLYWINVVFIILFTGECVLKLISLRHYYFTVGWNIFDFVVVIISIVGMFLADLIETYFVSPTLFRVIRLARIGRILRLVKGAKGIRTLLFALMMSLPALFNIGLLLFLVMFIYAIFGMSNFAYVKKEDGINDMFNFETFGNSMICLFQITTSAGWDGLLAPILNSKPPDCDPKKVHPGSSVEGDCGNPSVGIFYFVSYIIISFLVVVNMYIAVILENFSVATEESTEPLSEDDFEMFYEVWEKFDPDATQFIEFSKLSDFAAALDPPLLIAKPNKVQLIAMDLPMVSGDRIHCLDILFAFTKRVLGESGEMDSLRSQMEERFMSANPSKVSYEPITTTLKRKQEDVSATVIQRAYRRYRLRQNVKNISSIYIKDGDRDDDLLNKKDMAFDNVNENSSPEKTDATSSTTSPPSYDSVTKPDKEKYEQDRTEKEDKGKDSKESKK

Molecular target: Sodium channel protein type 9 subunit alpha (Homo sapiens, UniProt Q15858)
Test: cell-based
Settings: IC50 (nM)

`NC1CCC(CCNc2cc(F)c(S(=O)(=O)Nc3nccs3)cc2Cl)(c2ccccc2)CC1` (configuration not stated) [US10836758, Example 54] was tested, and the IC50 was 9 nM.
Compound `NC1CCC(CCNc2cc(F)c(S(=O)(=O)Nc3nccs3)cc2Cl)(c2ccccc2)CC1` (configuration not stated) [US10836758, Example 55] has an IC50 of 164 nM.
